Assay results reported in patent publication US20240358732A1, “Use of Rutin and Rapamycin in the Preparation of Synergistic Chemotherapy Drugs for Tumor Inhibition” (priority 2023, published 2024).

Tested on: SASP factors
Test: qRT-PCR of typical SASP factors in BLEO-induced senescent PSC27 cells
Format: cell-based, human

## N[C@@H](Cc1ccc([N+]([O-])(CCCl)CCCl)cc1)C(=O)O
  expression of p16^INK4A and p21^CIP1: remain unaffected
  expression of typical SASP factors: significantly decrease
